# US20050049204A1, “Compounds for the treatment of flaviviridae infections” (priority 2003, published 2005)
# Experiments:
# [1] = test system: HCV replicon RNA in Huh7 cells; test: Reversal studies with natural nucleosides: HCV RNA; type: cell-based, hepatitis C virus (HCV); details: no nucleoside
# Experimental: (§1) Incubation times differed according to the type of experiment.
# (§2) Cells were incubated with the test compound and, simultaneously, the natural ribo- or 2′-deoxy nucleosides (adenosine, guanosine (G), cytidine (C), uridine (U), 2′-deoxycytidine (dC), 2′-deoxyuridine, thymidine, 2′-deoxyguanosine (dG), and 2′-deoxyadenosine) (Table 2).
# [2] = test system: HCV-replicon RNA-containing Huh7 cells (HCV RNA); details: 96 hr of incubation; as previously published (Stuyver et al. 2003); cited from earlier work
# HCV = details: IFN as sole treatment (Davis 2000); cited from earlier work
# [3] = test system: HCV-replicon RNA-containing Huh7 cells (HCV RNA); test: HCV replicon assay: HCV RNA quantified by Q-RT-PCR after 96 h of compound exposure; type: cell-based, hepatitis C virus (HCV); details: IFN tested at 100 IU/ml; for Corrected HCV RNA log10 reduction: corrected for rRNA
# Experimental: as §1
# [4] = test system: rRNA in HCV replicon Huh7 cells; test: Reversal studies with natural nucleosides: rRNA; type: cell-based; details: 3125 IU/ml, no nucleoside
# Experimental: as §1, §2
# [5] = test system: HCV replicon-containing Huh7 cell line; test: Dynamics of replicon cell growth (cell count) over a 7-day period
# [6] = test system: HCV replicon RNA in Huh7 cells; test: HCV RNA levels in replicon cells over a 7-day period; type: cell-based, hepatitis C virus (HCV); details: IFN-α-2a at 100 IU/ml; control 1.79±0.4
Molecule,log10 reduction HCV ([1]; 25 μM) [log10],Corrected HCV RNA EC90 [2] [IU/ml],"sustained response, share of patients chronically infected with HCV (HCV)",log10 reduction HCV ([1]; 3125 IU/ml) [log10],Log10 RNA reduction HCV [3] [log10],Corrected HCV RNA log10 reduction [3] [log10],Corrected HCV RNA log10 reduction ([3]; listed as IFN-α-2a) [log10],Log10 RNA reduction HCV ([3]; listed as IFN-α-2a) [log10],log10 reduction rRNA [4] [log10],"cell growth at day 4 ([5]; day 4, IFN-α-2a at 100 IU/ml) [log10]","cell growth, log10 increase from day 0 ([5]; day 7, IFN-α-2a at 100 IU/ml) [log10]",HCV RNA levels over the 7-day period [6]
"C[C@@]1(O)[C@H](O)[C@@H](CO)O[C@H]1n1ccc(N)nc1=O [2′C—CH3—C, 2′-C-methyl-cytidine]",1.62 ± 0.05,,,,,,,,,,,
"Interferon: recombinant interferon alfa-2a (Roferon-A, Hoffmann-La Roche), control in the replicon experiments",,4.5,8%-9%,1.62 ± 0.05,1.57 ± 0.26,1.36 ± 0.37,1.36±0.37,1.57±0.26,0.26 ± 0.18,0.67±0.06,1.07±0.06,−0.53±0.4
